# Assay results as given in PubChem BioAssay AID651706 (NMMLSC, 2012).
# This is a selection; strong and weak results do not stand in their true shares. Some results for these compounds are left out of this collection, so the calls shown say nothing about other tests. The source made the active and inactive calls.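 How the source made its calls: active means share of green or green-and-red cells above 9 and 9% in run 1 or 4 and 3% in run 2; inactive means the rest, inconclusive results apart.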
# Assay: inducers of myeloid progenitor differentiation, confirmation, cell-based, GFP/Mac1 flow cytometry, cherry pick 01 (AID 651706);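 further: plate controls were double positive share in DMSO wells for no effect and share in positive control wells for full effect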
# Conditions: ER-HoxA9 myeloid progenitors, GFP/Mac1 double-positive flow; active compounds read high
row,Structure (SMILES),differentiation response
1,CCN(CC)CC(C)C(C)OC(=O)C(O)(c1ccccc1)c1ccccc1 (stereo unspecified),inactive: 1.4%
